{"source": "patent US6706683B1", "about": "“Method for controlling the release of granules” (Asahi Kasei Pharma Corporation, priority 1998, dated 2004)", "system": "neutrophils", "assay": "Screening of samples in calgranulin-stimulated elastase secretion from permeabilized neutrophils (Example 3)", "type": "cell-based, human", "details": "sample 30 μM, control without sample = 100%, calcium chloride 1 μM plus calgranulin (type and concentration not given)", "data": [{"compound": "O=C(O)c1cc(N=Nc2ccc(S(=O)(=O)Nc3ccccn3)cc2)ccc1O", "note": "[Compound 4, 2-hydroxy-5-((-4-((-2-pyridinylamino)sulfonyl)phenyl)azo)benzoic acid, reference compound]", "values": [{"measurement": "Amount of secretion (%)", "result": 75, "unit": "%"}]}]}
